{
  "source": "ChEMBL document CHEMBL1143351",
  "about": "(J Med Chem, 2009)",
  "molecular_target": "T1, Nitric oxide synthase, inducible (Mus musculus, UniProt P29477)",
  "T1 sequence (P29477 whole entry)": "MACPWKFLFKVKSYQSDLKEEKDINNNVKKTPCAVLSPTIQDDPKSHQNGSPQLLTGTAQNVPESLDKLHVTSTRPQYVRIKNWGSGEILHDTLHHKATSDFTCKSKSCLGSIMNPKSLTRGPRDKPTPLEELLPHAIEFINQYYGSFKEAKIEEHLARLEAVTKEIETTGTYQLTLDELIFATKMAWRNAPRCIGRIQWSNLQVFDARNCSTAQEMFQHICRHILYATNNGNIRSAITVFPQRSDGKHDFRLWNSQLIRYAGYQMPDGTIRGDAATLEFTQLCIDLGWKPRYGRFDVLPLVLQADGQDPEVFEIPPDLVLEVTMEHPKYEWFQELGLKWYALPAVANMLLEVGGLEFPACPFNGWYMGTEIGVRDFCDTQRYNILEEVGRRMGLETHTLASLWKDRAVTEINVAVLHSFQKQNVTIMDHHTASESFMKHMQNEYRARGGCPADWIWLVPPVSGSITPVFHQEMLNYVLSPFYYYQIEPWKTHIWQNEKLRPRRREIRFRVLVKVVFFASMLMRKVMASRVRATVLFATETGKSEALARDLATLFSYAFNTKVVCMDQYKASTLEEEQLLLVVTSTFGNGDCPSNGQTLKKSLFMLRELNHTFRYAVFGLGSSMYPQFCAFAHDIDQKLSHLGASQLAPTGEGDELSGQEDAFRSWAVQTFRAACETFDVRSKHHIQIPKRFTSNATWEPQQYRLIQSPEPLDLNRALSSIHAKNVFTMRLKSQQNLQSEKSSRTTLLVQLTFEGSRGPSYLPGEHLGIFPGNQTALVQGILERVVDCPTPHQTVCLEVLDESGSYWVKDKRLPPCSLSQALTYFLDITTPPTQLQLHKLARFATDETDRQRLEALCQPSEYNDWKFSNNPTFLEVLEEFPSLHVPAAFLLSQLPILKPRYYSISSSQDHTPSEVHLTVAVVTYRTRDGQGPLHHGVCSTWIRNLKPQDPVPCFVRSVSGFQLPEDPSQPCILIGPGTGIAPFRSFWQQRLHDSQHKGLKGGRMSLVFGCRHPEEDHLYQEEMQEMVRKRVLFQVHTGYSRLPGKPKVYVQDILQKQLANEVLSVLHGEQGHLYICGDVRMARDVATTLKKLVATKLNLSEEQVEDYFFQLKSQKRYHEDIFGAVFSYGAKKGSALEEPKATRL",
  "data": [
    {"smiles": "Cc1cc(N)nc(C[C@H]2CNC[C@H]2NCCNCc2cccc(Cl)c2)c1", "note": "(racemic)", "values": [
      {"measurement": "Ki", "result": 9.48, "unit": "µM"}
    ]}
  ]
}
